Molecules are shown by their SMILES. Read-outs that look alike come from different tables or passages of the source.

Chains of the proteins cited; added tags and fusions are not shown. Lines headed by an entry give the natural chain unless they say otherwise; changes in a name come on top.
UniProt P16050: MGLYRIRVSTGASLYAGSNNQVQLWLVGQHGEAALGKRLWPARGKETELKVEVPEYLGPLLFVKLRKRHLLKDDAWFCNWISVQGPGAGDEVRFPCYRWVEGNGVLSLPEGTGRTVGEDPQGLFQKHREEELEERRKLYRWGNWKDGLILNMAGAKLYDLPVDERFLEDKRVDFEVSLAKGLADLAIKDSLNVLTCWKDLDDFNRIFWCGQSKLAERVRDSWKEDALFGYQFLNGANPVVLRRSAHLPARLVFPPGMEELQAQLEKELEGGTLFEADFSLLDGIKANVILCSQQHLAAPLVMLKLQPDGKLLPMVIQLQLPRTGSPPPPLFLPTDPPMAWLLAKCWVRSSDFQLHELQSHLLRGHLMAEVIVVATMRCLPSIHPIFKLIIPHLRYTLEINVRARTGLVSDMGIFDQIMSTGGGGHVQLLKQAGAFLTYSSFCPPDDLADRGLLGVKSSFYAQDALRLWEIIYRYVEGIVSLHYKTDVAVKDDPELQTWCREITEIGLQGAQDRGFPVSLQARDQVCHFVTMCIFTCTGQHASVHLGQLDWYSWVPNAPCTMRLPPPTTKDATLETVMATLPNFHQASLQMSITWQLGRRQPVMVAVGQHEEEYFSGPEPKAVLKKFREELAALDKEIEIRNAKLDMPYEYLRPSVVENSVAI
UniProt P18054: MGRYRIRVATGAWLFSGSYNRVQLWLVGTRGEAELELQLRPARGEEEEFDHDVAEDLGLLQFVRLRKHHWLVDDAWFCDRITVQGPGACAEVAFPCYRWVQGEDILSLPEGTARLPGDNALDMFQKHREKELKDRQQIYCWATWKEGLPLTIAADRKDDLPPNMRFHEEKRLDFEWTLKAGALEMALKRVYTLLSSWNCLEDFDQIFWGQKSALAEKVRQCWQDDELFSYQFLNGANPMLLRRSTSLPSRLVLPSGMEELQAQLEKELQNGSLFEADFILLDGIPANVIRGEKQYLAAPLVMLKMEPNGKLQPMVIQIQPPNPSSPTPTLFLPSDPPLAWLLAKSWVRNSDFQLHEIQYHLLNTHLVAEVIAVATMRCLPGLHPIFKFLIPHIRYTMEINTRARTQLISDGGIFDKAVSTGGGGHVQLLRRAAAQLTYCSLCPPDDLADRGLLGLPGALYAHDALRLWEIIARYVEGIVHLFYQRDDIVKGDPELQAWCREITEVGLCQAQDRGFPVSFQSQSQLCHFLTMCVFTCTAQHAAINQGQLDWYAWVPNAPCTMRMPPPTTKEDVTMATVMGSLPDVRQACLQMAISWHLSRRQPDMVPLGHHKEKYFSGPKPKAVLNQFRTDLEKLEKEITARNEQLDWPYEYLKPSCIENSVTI

The target of data set [1] is human reticulocyte 15-lipoxygenase-1 (15-LOX-1) (Homo sapiens (Human), UniProt P16050). As to the kind of experiment: Lipoxygenase UV-Vis assay (15-LOX-1). The data set is classed as biochemical.
The nature of data set [2]: In Vivo PK (Mouse). The settings on record: male, CD1, mouse, po, 30 mg/kg.
Data set [3] addresses T1, 12-LOX (Homo sapiens (Human), UniProt P18054). Briefly: biochemical.
Data set [4] deals with T1, 12-LOX. The settings on record: 0.01% Triton X-100.

`COc1cccc(CNc2ccc(S(=O)(=O)Nc3nc4ccccc4s3)cc2)c1O` [Compound 35, N-(benzo[d]thiazol-2-yl)-4-((2-hydroxy-3-methoxybenzyl)amino)benzenesulfonamide]: the half-inhibitory concentration (IC50) in data set [1] (Table 4, read-out: 15-LOX-1 IC50) was found to be 9.7 µM. Besides, the Tmax in data set [2] was found to be 15 min.

Consider `COc1cccc(CNc2ccc(S(=O)(=O)Nc3nc4ccccc4o3)cc2)c1O` [Compound 36, N-(benzo[d]oxazol-2-yl)-4-((2-hydroxy-3-methoxybenzyl)amino)benzenesulfonamide], for which the Ki came out at 0.63 µM in data set [3], 0.62 ± 0.1 µM in data set [4] (from 1/Vmax replot) and 0.53 ± 0.2 µM in data set [4] (from Km/Vmax replot).

On to `COc1cccc(CNc2ccc(S(=O)(=O)Nc3nc4ccccc4[nH]3)cc2)c1O` [Compound 37, N-(1H-benzo[d]imidazol-2-yl)-4-((2-hydroxy-3-methoxybenzyl)amino)benzenesulfonamide], for which the IC50 in data set [1] is over 70 µM; in data set [1] (15-LOX-1 IC50, Table 4) it was over 100 µM.

Take `COc1ccc2nc(NS(=O)(=O)c3ccc(NCc4cccc(OC)c4O)cc3)sc2c1` [Compound 62, 4-((2-hydroxy-3-methoxybenzyl)amino)-N-(6-methoxybenzo[d]thiazol-2-yl)benzenesulfonamide]: the “inhibition of 15-LOX-1 (in words)” value in data set [1] (single concentration (25 μM)) is “almost complete inhibition of 15-LOX-1”.

For the compound `COc1cccc(CNc2ccc(S(=O)(=O)Nc3cccc(C(C)C)c3)cc2)c1O` [Compound 67, 4-((2-hydroxy-3-methoxybenzyl)amino)-N-(3-isopropylphenyl)benzenesulfonamide], the IC50 in data set [1] was over 100 µM.
